# Measurements as given in BindingDB's records for doi:10.1021/bi9007098 (The University of Texas, 2009).
# Chains of the proteins cited; added tags and fusions are not shown.
# UniProt P29475, whole entry: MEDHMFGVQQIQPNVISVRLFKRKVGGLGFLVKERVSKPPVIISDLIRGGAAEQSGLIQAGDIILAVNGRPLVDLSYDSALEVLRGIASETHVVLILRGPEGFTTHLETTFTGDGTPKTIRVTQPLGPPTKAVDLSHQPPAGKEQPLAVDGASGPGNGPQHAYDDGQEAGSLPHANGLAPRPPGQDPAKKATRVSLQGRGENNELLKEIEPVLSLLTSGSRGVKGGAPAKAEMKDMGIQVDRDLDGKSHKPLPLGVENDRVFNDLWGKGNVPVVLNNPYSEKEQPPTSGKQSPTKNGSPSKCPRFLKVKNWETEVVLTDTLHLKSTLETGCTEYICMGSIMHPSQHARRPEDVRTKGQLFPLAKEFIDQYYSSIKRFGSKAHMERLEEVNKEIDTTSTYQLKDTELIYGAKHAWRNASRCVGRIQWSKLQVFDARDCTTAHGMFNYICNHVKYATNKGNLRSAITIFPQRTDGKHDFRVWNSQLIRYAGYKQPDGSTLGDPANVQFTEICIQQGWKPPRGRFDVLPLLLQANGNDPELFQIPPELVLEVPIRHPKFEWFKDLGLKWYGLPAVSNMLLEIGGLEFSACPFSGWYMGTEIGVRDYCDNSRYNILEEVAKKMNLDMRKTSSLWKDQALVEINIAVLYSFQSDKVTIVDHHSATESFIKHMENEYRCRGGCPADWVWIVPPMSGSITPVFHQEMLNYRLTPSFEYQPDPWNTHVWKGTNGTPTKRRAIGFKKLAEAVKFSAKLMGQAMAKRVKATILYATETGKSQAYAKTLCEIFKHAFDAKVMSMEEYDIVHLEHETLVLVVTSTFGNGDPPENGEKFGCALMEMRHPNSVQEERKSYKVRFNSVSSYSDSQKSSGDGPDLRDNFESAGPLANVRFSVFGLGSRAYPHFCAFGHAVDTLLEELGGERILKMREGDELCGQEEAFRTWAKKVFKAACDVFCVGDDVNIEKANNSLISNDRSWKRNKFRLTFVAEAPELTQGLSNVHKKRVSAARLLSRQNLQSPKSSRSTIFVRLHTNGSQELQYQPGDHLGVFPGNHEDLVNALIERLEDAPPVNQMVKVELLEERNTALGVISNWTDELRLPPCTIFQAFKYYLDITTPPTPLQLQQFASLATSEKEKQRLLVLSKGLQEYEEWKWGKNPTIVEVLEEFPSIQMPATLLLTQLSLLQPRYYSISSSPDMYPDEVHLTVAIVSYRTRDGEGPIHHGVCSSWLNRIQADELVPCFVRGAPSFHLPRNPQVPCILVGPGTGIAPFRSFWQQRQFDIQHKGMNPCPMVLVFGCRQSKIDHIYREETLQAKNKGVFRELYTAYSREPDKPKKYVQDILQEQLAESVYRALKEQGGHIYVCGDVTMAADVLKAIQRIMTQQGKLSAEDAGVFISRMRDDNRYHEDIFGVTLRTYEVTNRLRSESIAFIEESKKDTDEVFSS
# pKi: −log10 of the molar value.
# Biological target: Nitric oxide synthase, brain (Homo sapiens, UniProt P29475)
# Assay: Inhibition Assay
# From the text: Inhibition assay using DDAH-1 and nNOS.
structure (smiles),measurement,value
"CCCCC(=N)NCCC[C@H](N)C(=O)O [nNOS and DDAH inhibitor, 14]",pKi,4.70
